Assay results as given in patent US6458758B1, “Compositions and methods utilizing nitroxides in combination with biocompatible macromolecules” (Synzyme Technologies, Inc., priority 1993, dated 2002).

Key:
CD-1 mice = assay: Focal cerebral ischemia (MCA/CCA occlusion 1 h) and reperfusion in CD-1 mice; assay type: in vivo; conditions: for infarct volume / % infarction: mean±SEM
Experimental: The animals were subjected to middle cerebral artery (MCA) occlusion and reperfusion by the method of Yang et al. (Stroke 25: 165-170, 1994) with occlusion of the ipsilateral common carotid artery (CCA). PNA or a control solution of human serum albumin was injected intravenously just before one hour of MCA occlusion (pre-ischemia group) or just after reperfusion following one hour of ischemia (post-reperfusion group). The dose was 0.5% of body weight, v/w). Body temperature was maintained within the range 36.5-37.5° C. during the surgery. Mean arterial pressure and blood gasses were measured in four animals to insure a valid control group.
Twenty-four hours after reperfusion, animals were assessed for neurological deficit as described by Bederson et al. (Stroke 17: 472-476, 1986). Neurological deficits were scored on the following scale: 0+no observable deficit, 1+failure to extend right forepaw, 2+circling to the right, 3+falling to the right, 4+cannot walk spontaneously. Following the neurological assessment, the animals were decapitated and the brains rapidly removed and frozen for histological analysis. Coronal sections 20 Mm thick were made at intervals of 0.5 mm from the anterior tip of the brain and strained with cresyl violet in order to evaluate infarction (n+7 animals). Infarct volume was calculated by integrating infarct size (measured in mm^2 in the serial sections.

C57 mice = assay: 30-day survival of C57 mice after 10 Gray irradiation; assay type: in vivo; conditions: PNA 0.5 ml/mouse alone
[1] = 0.2 ml PNA iv two hours after TEMPOL injection, mouse
[2] = Plasma levels of TPL with or without PNA in C57 mice (EPR); conditions: PNA 0.5 ml/mouse, 20 g/dl albumin, 42 moles TPL per mole albumin
rat brain = assay: Diffusion-weighted MRI of rat brain during MCA occlusion and reperfusion; assay type: in vivo
Source text: In addition, the protection offered by PNA against reperfusion injury is indicated by the rapid disappearance of DWI hyperintensity following reperfusion.
In stroke, hyperintensity on DWI is thought to be a real-time indicator of the course of cerebral damage during ischemia. Perfusion-weighted imaging (PWI) was used in this experiment to confirm the occlusion and reperfusion of the MCA (images not shown). […] For comparison, in control images (not shown) a distinct DWI image typically appears within 5-10 minutes of MCA occlusion. […] For comparison, control images typically show progression of the DWI image after reperfusion, reflecting reperfusion injury. Rows E and F show images made, respectively, 1 hour and 2 hours post-reperfusion, confirming the absence of a DWI image.

[3] = tested on: leukocyte rolling and adhesion to endothelial cells; assay: Cigarette smoke induced leukocyte rolling, adhesion and aggregate formation, dorsal skinfold chamber; assay type: in vivo, Syrian Golden hamsters
Source text: The interactions of leukocytes with endothelial cells and platelets are an indicator of the microcirculatory response to several adverse physiological conditions, ranging from localized and systemic ischemia/reperfusion injury, rejection of organ grafts, and the response to the organism to various oxidizing novae. See also Lehr et al., PNAS, […]. The mediator role of reactive oxygen species has been documented in many in vitro and in vivo models and, as a consequence, antioxidants and radical scavengers have been applied to counteract leukocyte activation, aggregation, and adhesion to endothelium and the subsequent microcirculatory dysfunction.

Sprague-Dawley rats = assay: Glycerol-induced rhabdomyolysis renal injury survival study; assay type: in vivo, rat; conditions: albumin as control, 1.25 ml iv twice
Experimental: In an animal model of rhabdomyolysis, a bolus injection of glycerine into a major muscle causes heme-induced renal injury. […] Male Sprague-Dawley rats weighing approximately 275 g were dehydrated overnight (16 h) after having baseline serum creatinine determined. On the following morning, 1.25 ml of either polynitroxide albumin and TEMPOL (10 g/dl) or albumin (10 g/dl) was given via tail vein injection. Immediately following the injection, an IM injection of glycerol (50w in water v/v, 10 ml/Kg) was given, ½ of the dose into each anterior thigh muscle. Two hours after the first injection another identical dose was given via tail vein injection. Referring to FIG. 43, for the next 10 days, survival and serum creatinine were monitored.

## PNA
CD-1 mice; PNA 0.5% v/w before ischemia or immediately after reperfusion, 24 hrs post-reperfusion
  neurological deficit: significantly reduces
CD-1 mice; treated at the onset of reperfusion
  hemisphere enlargement: 3.056%
CD-1 mice; treated before the onset of ischemia, 24 hrs post-reperfusion
  infarct volume: 6.956 mm^3
CD-1 mice; treated immediately after reperfusion, 24 hrs post-reperfusion
  infarct volume: 13.710 mm^3
CD-1 mice; treated immediately post-reperfusion
  % infarction: 9.210%
CD-1 mice; treated pre-ischemia
  hemisphere enlargement: 0.094%
  % infarction: 5.148%
C57 mice
  survival outcome: all mice die on or about day 15; also recorded: all ten mice died on day 15
[1]
  persistence of regenerated TEMPOL signal: more than two hours
  time to reappearance of TEMPOL signal: ≤ 4 min
[2]
  enhancement of plasma level of TPL in the presence of PNA: greater than tenfold
Rat brain; PNA present before ischemia, 1.5-hour occlusion
  time after MCA occlusion at which DWI hyperintensity begins to appear: 30 min
Rat brain; PNA present before the onset of ischemia
  progression of ischemic injury in the brain (DWI): substantially slowing the progression of ischemic injury
Rat brain; rat, in vivo
  histology 24 hours post-MCA occlusion: small infarct in the basal ganglia, and no cortical infarct
[3]; 15 MINUTES
  aggregate formation: 0.9 ± 0.7 /30 sec
  arteriolar rolling: 0.0 ± 0.0 /mm
  arteriolar sticking: 0.0 ± 0.0 /mm^2
  venular rolling: 5.8 ± 0.8%
  venular sticking: 0.0 ± 0.0 /mm^2
[3]; 60 MINUTES
  aggregate formation: 1.2 ± 0.8 /30 sec
  arteriolar rolling: 0.0 ± 0.0 /mm
  arteriolar sticking: 0.0 ± 0.0 /mm^2
  venular rolling: 6.3 ± 1.8%
  venular sticking: 0.0 ± 0.0 /mm^2
[3]; BASELINE
  aggregate formation: 0.4 ± 0.5 /30 sec
  arteriolar rolling: 0.0 /mm
  arteriolar sticking: 0.0 /mm^2
  venular rolling: 5.2 ± 0.8%
  venular sticking: 0.0 ± 0.0 /mm^2
[3]; cigarette smoke, compared with saline-treated controls
  leukocyte activation: inhibited activation
Sprague-Dawley rats
  glycerol-induced renal injury: reduce glycerol-induced renal injury

“Also recorded” adds a separate entry of the source.
